pIC50: −log10 of the molar value.
Legend:
[1] = biological target: Bifunctional epoxide hydrolase 2 (Mus musculus, UniProt P34914)
Mus musculus = species: Mus musculus; assay: animal or person; conditions: po, read-out: INH

Chains of the proteins cited; added tags and fusions are not shown. Lines headed by an entry give the natural chain unless they say otherwise; changes in a name come on top.
UniProt P34914: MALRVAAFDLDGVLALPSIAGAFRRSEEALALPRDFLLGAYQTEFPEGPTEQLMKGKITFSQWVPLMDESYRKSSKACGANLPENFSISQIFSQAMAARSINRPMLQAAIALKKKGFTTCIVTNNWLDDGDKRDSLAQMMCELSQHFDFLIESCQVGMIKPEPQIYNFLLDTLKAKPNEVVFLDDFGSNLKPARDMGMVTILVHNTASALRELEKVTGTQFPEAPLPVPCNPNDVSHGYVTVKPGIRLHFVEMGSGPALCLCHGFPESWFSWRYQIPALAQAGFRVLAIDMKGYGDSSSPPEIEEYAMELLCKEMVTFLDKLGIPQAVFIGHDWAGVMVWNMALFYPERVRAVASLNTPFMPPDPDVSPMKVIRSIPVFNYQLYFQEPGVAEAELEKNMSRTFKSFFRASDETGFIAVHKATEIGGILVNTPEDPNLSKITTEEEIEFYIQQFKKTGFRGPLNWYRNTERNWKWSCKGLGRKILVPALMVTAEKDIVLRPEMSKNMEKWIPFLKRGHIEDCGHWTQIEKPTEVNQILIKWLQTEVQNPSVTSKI

CC(=O)N1CCC(NC(=O)NC23CC4CC(CC(C4)C2)C3)CC1 [AR9281]
pIC50 [1]: 8.52
inhibition in vivo at 100 mg/kg (Mus musculus): 70%

From ChEMBL document CHEMBL1667772 (Bioorg Med Chem Lett, 2011)
